Patent publication US20080287478A1 (priority 2003, published 2008)

Assays:
[1] = rat, in vivo
[2] = system: male NMRI mice; conditions: mouse, in vivo, iv

cis-(8-(4-Isopropyl-cyclohexyl)-1-phenyl-1,3,8-triaza-spiro[4.5]decan-4-one)-acetic acid [Compound 11]
T½ min (half-life) [1]: 25 min | CNS grid shock* (Minimal effective dose nmol/kg) [2]: >10000 nmol/kg
